Experimental findings from patent US20240124563A1 are described below.

In experiment [1] the target is monkey MSLN full-length protein on HEK293T cells (monkey). Nature of the experiment: FACS, HEK293T-monkey-MSLN cells, antibody […]. (A flow cytometer gives signals particle by particle.)
Experiment [2] has the same target. Briefly: FACS, HEK293T-monkey-MSLN cells, antibody 4 nM.
For experiment [3] the target is unchanged. Briefly: FACS, HEK293T-monkey-MSLN cells, antibody 20 nM.
The target is the same in experiment [4]. Nature of the experiment: FACS, HEK293T-monkey-MSLN cells, antibody 0.8 nM.
For experiment [5] the target is unchanged. Nature of the experiment: FACS, HEK293T-monkey-MSLN cells, antibody 100 nM.
Experiment [6] has the same target. Briefly: FACS, HEK293T-monkey-MSLN cells, antibody 0.16 nM.
Experiment [7] has the same target. Briefly: FACS, HEK293T-monkey-MSLN cells, antibody 0.032 nM.
Experiment [8] has the same target. Nature of the experiment: FACS, HEK293T-monkey-MSLN cells, antibody 0.0064 nM.

Consider Tab142 (Amatuximab) (antibody), for which the FACS signal (MFI) in experiment [1] was found to be 98; in experiment [2], 3610; in experiment [3], 3650; in experiment [4], 1680; in experiment [5] it was 3720; in experiment [6], 503. Also, the values for the FACS signal (MFI) in experiment [7] and in experiment [8] were 192 and 115, respectively.
